Experimental data from article PMC6720714, “Structural and Biological Characterizations of Novel High-Affinity Fluorescent Probes with Overlapped and Distinctive Binding Regions on CXCR4” (Molecules, 2019).

By UniProt entry, the sequences of proteins in these tests, tags left out.
UniProt P61073, whole entry: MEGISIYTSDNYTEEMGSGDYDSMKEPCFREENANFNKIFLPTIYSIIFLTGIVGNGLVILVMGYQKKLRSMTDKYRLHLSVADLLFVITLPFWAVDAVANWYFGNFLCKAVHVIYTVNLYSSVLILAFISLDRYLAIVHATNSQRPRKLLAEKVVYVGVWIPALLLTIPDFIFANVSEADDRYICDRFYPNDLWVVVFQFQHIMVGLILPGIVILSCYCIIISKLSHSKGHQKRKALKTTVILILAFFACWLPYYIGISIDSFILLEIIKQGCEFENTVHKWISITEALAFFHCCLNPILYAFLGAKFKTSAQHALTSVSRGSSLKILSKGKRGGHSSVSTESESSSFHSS

Columns and labels:
Set-up in all cases: expressed in transfected cells; host or cells: CHO (CHO-CXCR4, G418-selected)
CXCR4 [1] = biological target: T1, CXCR4 (Homo sapiens, UniProt P61073); assay: FITC-CVX15-based competitive binding assay on CHO-CXCR4 cells; conditions: competition with 400 nM FITC-CVX15, CHO-CXCR4 cells, 4 °C, 50 min
CXCR4 [2] = biological target: T1, CXCR4; assay: 12G5 antibody-based competitive binding assay on CHO-CXCR4 cells; conditions: competition with antibody 12G5 at 250 ng/mL, 4 °C, read-out: IC50, 12G5 Ab
Method: (§1) Gradient concentrations of CXCR4 ligands were prepared with 1% BSA/PBS. CHO-CXCR4 cells were cultured and diluted into 5 × 10^5 cells/mL in 0.5% BSA/PBS. One hundred microliters of above cell solutions were added to each well of a 96-well plate and washed twice with 0.5% BSA/PBS. Cells were then incubated with 100 μL primary 12G5 Ab (1:2000, mouse anti-human CD184 antibody, BD Biosciences, CA, USA) in 0.5% BSA/PBS except for negative control group and gradient concentrations of CXCR4 ligands for 40 min on a shaker at 4 °C.

CXCR4 [3] = biological target: T1, CXCR4; assay: Three parallel CXCR4 competitive binding assays (FITC-CVX15, FITC-DV1, 12G5) compared; conditions: summary over the three parallel assays; read-out: IC50 values (binding affinity to CXCR4)
Method: as §1

- IC50 (CXCR4 [1]): 14.7 nM
- IC50 (CXCR4 [2]): 12.2 nM
- IC50 (CXCR4 [3]): < 50 nM
Compound: NCCCCN(Cc1nc2ccccc2[nH]1)[C@H]1CCCc2cccnc21 [AMD070]
